Values of other authors, collected in patent publication US20230065562A1, “DUAL CONTROLS FOR THERAPEUTIC CELL ACTIVATION OR ELIMINATION” (Bellicum Pharmaceuticals, Inc., priority 2015, published 2023).

By UniProt entry, the sequences of proteins in these tests, tags left out. Where a name states a change or a piece, a line headed by the entry shows the natural chain unless it says otherwise.
UniProt P62942: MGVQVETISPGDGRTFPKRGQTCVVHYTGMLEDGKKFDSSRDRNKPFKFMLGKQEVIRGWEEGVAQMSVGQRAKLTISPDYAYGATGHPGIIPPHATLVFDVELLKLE

What was measured:
[1] = biological target: FRB-KLW (Homo sapiens, UniProt P42345+P62942, T2098L); details: cited from earlier work
[2] = biological target: wt FRB (K2095 T2098 W2101) (Homo sapiens, UniProt P42345+P62942); details: cited from earlier work

S-o,p-dimethoxyphenyl (DMOP)-rapamycin
EC50 [1]: ~5 nM
EC50 [2]: ~1000 nM
